Experiments:
laminin (LM) [1] = biological target: laminin (LM) (UniProt P02469)
laminin (LM) [2] = biological target: laminin (LM) (UniProt P02469); experiment: ELISA; wells coated with 1 μg LM; increasing concentrations of His-tagged r37LRP in PBS, 1 mg/ml BSA, 1 h at 37°C; detected with Penta-His HRP; BSA-coated wells subtracted; one-site binding hyperbola

67 kDa laminin receptor (67LR) on the surface of LR-293 cells (HEK-293 stably transfected with human 37LRP cDNA with C-terminal T7 tag and poly-histidine stretch) (from UniProt P08865 1-295)
adhesion of LR-293 cells (67LR overexpressing) for 1 hour to wells coated with increasing concentrations of LM, without inhibitor; Kd from the binding curve (laminin (LM) [1]): 14.5 nM

human recombinant soluble 37LRP (r37LRP), His-tagged (from UniProt P08865 1-295) (natural protein)
Kd (laminin (LM) [2]): 1900 nM
